Consider 1 compound from patent publication US20200352886A1, “TREATMENT OF PAIN WITH TOPICAL DICLOFENAC” (priority 2009, published 2020).

This data set has as its system subjects with primary osteoarthritis of the knee. The data set is described as follows: 12-week randomized controlled trial: safety (adverse events, laboratory parameters, ocular examination). The format is in vivo, human. As to conditions: normal at baseline to above upper limit of normal. The protocol:
Study Design: Eligible subjects were stratified by the investigator at baseline into stratum 1 (no pain and normal radiological examination in the non-study knee) or stratum 2 (pain and/or abnormal radiological examination in the non-study knee), and then randomized into the trial by receiving the next numbered study kit at that clinic for that stratum. […] Subjects applied 40 drops of solution (approximately 1.2 mL) around the entire circumference of the study knee, without massage, 4 times daily, and took one study tablet daily for up to 12 weeks.
Each subject completed a full efficacy assessment questionnaire after randomization at baseline and at 4, 8 and 12 weeks, or at drop out. […] The POHA asked the question, “Considering all the ways your osteoarthritic (study) knee and its treatment affect you, including both positive and negative effects, how would you rate your overall state of health in the past 48 hours?” Secondary efficacy variables were WOMAC stiffness and patient global assessment (“PGA”) of knee osteoarthritis. The PGA asked the question, “How has the osteoarthritis in your study joint been over the last 48 hours?” The POHA and PGA were scored on a 5-point Likert scale. There was no assessment of the non-treated knee. […] Adverse events were categorized according to Coding Symbols for Thesaurus of Adverse Reaction Terms (“COSTART”). […]

In the case of `O=C(O)Cc1ccccc1Nc1c(Cl)cccc1Cl` [ODiclo, diclofenac], the “AST, normal to abnormal” value is recorded as 27 (19.6) N (%).
